# In ChEMBL document CHEMBL4837250, “Discovery of LYC-55716: A Potent, Selective, and Orally Bioavailable Retinoic Acid Receptor-Related Orphan Receptor-γ (RORγ) Agonist for Use in Treating Cancer” (J Med Chem, 2021):
# Biological target: T1, Nuclear receptor subfamily 1 group I member 2 (Homo sapiens, UniProt O75469)
# T1 sequence (O75469 whole entry): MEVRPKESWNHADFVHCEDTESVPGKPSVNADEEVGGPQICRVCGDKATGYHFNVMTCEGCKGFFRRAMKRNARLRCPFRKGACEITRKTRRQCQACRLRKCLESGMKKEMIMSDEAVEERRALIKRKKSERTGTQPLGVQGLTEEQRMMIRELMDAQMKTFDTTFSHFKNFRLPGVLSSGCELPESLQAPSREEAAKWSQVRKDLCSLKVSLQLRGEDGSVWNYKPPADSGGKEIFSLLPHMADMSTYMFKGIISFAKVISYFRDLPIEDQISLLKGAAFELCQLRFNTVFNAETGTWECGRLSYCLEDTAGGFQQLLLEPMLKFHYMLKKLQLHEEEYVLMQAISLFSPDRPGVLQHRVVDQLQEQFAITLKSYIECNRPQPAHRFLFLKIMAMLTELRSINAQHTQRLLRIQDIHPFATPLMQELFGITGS
row,EC50,SMILES
1,2 µM,O=C(O)CC[C@H]1CN(S(=O)(=O)c2cccc(C(F)(F)F)c2)c2cc(/C=C/c3c(Cl)cccc3C(F)(F)F)ccc2O1
2,5.46 µM,O=C(O)C1(C[C@H]2CN(S(=O)(=O)c3cccc(C(F)(F)F)c3)c3cc(-c4cc(F)cc(OC(F)F)c4)ccc3O2)COC1
3,5 µM,C/C(=C\c1ccc2c(c1)N(S(=O)(=O)c1cccc(C(F)(F)F)c1)C[C@H](CCC(=O)O)O2)c1ccccc1C
4,8 µM,CC(C)(C[C@H]1CN(S(=O)(=O)c2cccc(C(F)(F)F)c2)c2cc(-c3cc(F)cc(OC(F)F)c3)ccc2O1)C(=O)O [CINTIRORGON]
